Measurements taken from patent publication US6124328A, “Methods and compositions for stimulating neurite growth” (Vertex Pharmaceuticals Incorporated, priority 1997, dated 2000).

Protein sequences, listed by entry. Tags and fused reporters are not part of them.
UniProt P62942, whole entry: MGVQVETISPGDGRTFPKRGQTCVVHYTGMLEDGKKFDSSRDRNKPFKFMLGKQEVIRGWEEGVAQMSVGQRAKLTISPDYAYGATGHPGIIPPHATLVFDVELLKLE

Target: FKBP12 (Homo sapiens, UniProt P62942)
Assay: FKBP12 Binding Assay: inhibition of FKBP rotomase activity (cis-N-succinyl-Ala-Ala-Pro-Phe-p-nitroanilide / chymotrypsin), apparent Ki
Type: biochemical
Conditions: Table 2, formula II', compound 0.1 nM-10 μM
Text: Preferably, the assay measures inhibition of FKBP12 rotomase activity. Such an assay has also been described by M. W. Harding et al., supra and by J. J. Siekierka et al., supra. In this assay the isomerization of an artificial substrate--N-succinyl-Ala-Ala-Pro-Phe-p-nitroanilide--is followed spectrophotometrically. The assay includes the cis form of the substrate, FKBP12, the inhibitor and chymotrypsin. Chymotrypsin is able to cleave p-nitroanilide from the trans form of the substrate, but not the cis form. Release of p-nitroanilide is measured.
In this assay various quantities of FKBP12 binding compound (0.1 nM-10 μM) were added to cis-N-succinyl-Ala-Ala-Pro-Phe-p-nitroanilide in the presence of FKBP12 and chymotrypsin. FKBP12 converts the cis form of the substrate to the trans form. This allows chymotrypsin to cleave p-nitroanilide from the substrate. Release of p-nitroanilide was measured spectrophotometrically.

Ki: 0.5 nM
SMILES: COc1cc(C(=O)C(=O)N2CCCC[C@H]2C(=O)OC(CCCc2ccccc2)CCCc2cccnc2)cc(OC)c1OC (stereo partly shown) [compound 9]
